# Data as given in PMC4601051, “Discovery of Indoline-2-carboxamide Derivatives as a New Class of Brain-Penetrant Inhibitors of Trypanosoma brucei” (Journal of Medicinal Chemistry, 2015).
# Tested on: T. b. brucei GVR35
# Settings: 12.5 mg/kg IP b.i.d. for 5 d from 21 d post infection, female NMRI mice, n = 5
# Description: For stage 2 of infection, the standard model is T. b. brucei GVR35 in which CNS infection is allowed to develop in female NMRI mice before treatment starts, requiring about 21 d.
# These were carried out as previously described[27],[32] at the dose level presented and using the same dose formulation as the pharmacokinetic studies. HRN mice were used under the same infection and monitoring protocol as described for female NMRI mice.
smiles,measurement,value
"CNC(=O)[C@H]1Cc2ccccc2N1C(=O)Cc1ccc(F)cc1 [Compound 47, (R)-1-(2-(4-Fluorophenyl)acetyl)-N-methylindoline-2-carboxamide]",cure (survival with no parasitaemia at 180 d post infection),one mouse was cured
